# Biological target: EGFR T790M L858R (Homo sapiens, UniProt P00533, L858R/T790M)
# By UniProt entry, the sequences of proteins in these tests, tags left out. Residues count along the entry.
# UniProt P00533, 25-1210 T790M/L858R limits assumed: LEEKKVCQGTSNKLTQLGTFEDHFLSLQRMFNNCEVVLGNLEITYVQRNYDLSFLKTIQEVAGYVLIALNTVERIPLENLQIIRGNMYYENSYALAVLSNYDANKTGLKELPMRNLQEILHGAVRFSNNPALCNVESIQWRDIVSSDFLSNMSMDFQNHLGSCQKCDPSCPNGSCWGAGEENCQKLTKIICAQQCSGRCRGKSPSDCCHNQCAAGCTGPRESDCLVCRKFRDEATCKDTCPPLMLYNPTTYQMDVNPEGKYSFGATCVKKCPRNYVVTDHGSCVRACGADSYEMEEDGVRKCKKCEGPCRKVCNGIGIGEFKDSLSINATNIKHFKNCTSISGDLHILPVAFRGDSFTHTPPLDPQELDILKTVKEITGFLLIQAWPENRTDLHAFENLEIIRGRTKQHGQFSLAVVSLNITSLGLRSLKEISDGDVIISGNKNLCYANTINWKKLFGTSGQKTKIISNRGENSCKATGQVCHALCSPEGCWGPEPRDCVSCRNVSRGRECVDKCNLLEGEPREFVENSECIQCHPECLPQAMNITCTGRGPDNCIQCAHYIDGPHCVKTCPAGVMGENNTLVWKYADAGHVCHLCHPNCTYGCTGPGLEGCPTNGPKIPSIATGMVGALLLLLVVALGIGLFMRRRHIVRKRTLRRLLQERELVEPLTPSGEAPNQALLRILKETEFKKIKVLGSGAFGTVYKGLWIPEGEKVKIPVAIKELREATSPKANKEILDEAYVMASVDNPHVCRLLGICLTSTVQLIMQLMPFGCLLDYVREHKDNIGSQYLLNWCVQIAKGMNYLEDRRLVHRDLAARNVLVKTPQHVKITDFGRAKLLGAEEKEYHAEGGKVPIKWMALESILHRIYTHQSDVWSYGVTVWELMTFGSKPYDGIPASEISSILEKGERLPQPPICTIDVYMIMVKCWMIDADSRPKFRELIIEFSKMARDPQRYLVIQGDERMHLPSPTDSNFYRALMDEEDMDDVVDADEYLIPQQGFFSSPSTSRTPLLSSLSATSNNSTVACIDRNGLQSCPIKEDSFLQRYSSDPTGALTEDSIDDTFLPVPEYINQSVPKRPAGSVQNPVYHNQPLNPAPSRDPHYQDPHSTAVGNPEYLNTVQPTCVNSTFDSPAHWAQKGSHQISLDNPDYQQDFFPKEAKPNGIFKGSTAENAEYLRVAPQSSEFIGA
# Assay: biochemical
# Conditions: EGFR(T790M/L858R) Ki (μM), 5 μM ATP, 30 min, room temperature; apparent Ki (Morrison) converted by Cheng-Prusoff, Km of ATP 1.3 μM
row,Ki [µM],Compound
1,0.241,"CC(C)n1cnc2cnc(Nc3ccnc(N4CCC(OCC(N)=O)CC4)n3)cc21 [Example 88, 2-(1-(4-(1-isopropyl-1H-imidazo[4,5-c]pyridin-6-ylamino)pyrimidin-2-yl)piperidin-4-yloxy)acetamide]"
2,0.0105,"CNc1nc2cnc(Nc3ccnc(N4CCC(OC)CC4)n3)cc2n1C(C)C [Example 6, 1-Isopropyl-N^6-[2-(4-methoxypiperidin-1-yl)pyrimidin-4-yl]-N^2-methyl-1H-imidazo[4,5-c]pyridine-2,6-diamine]"
3,0.0205,"CC(=O)N(C)c1ncc(-c2nccc(Nc3cc4c(cn3)nc(C)n4C(C)C)n2)s1 [Example 315, N-{5-[4-(1-Isopropyl-2-methyl-1H-imidazo[4,5-c]pyridin-6-ylamino)pyrimidin-2-yl]thiazol-2-yl}-N-methylacetamide]"
4,0.141,"COC1CCN(c2nccc(Nc3cc4c(cn3)nc(C)n4[C@@H](C)c3ccc4[nH]cnc4c3)n2)CC1 [Example 357, 1-[(1S)-1-(1H-Benzimidazol-5-yl)ethyl]-N-[2-(4-methoxy-1-piperidyl)pyrimidin-4-yl]-2-methyl-imidazo[4,5-c]pyridin-6-amine]"
5,0.00164,CO[C@@H]1CCN(c2nccc(Nc3cc4c(cn3)nc(CO)n4[C@@H](C)C(F)(F)F)n2)C[C@@H]1F [Example 657]
6,0.00895,"CC(C)C(C)n1c(CO)nc2cnc(Nc3ccnc(-c4cnn(S(=O)(=O)C5CC5)c4)n3)cc21 (centres unmarked) [Example 487, (6-(2-(1-(cyclopropylsulfonyl)-1H-pyrazol-4-yl)pyrimidin-4-ylamino)-1-(3-methylbutan-2-yl)-1H-imidazo[4,5-c]pyridin-2-yl)methanol]"
7,0.0203,"CC(C)n1cc(C(N)=O)c2cnc(Nc3ccnc(N4CCC(OC5CC5)CC4)n3)cc21 [Example 125, 6-((2-(4-cyclopropoxypiperidin-1-yl)pyrimidin-4-yl)amino)-1-isopropyl-1H-pyrrolo[3,2-c]pyridine-3-carboxamide]"
8,0.432,"CC(C)n1cnc2cnc(Nc3ccnc(NC4CC(O)C4)n3)cc21 (centres unmarked) [Example 108, 3-((4-((1-isopropyl-1H-imidazo[4,5-c]pyridin-6-yl)amino)pyrimidin-2-yl)amino)cyclobutanol]"
9,1.86,CCN1CCC(CN(C)c2nccc(Nc3cc4c(cn3)ncn4C(C)C)n2)C1 (centres unmarked) [Example 204]
10,0.0607,"CSc1cn(-c2nccc(Nc3cc4c(cn3)nc(C)n4C(C)C)n2)cn1 [Example 422, 1-isopropyl-2-methyl-N-(2-(4-(methylthio)-1H-imidazol-1-yl)pyrimidin-4-yl)-1H-imidazo[4,5-c]pyridin-6-amine]"
11,0.0693,"Cc1nc2cnc(Nc3ccnc(N4CC=CCC4)n3)cc2n1C(C)C [Example 160, [2-(3,6-Dihydro-2H-pyridin-1-yl)-pyrimidin-4-yl]-(1-isopropyl-2-methyl-1H-imidazo[4,5-c]pyridin-6-yl)amine]"
12,0.435,"COC1CCN(c2nccc(Nc3cc4c(cn3)nc(C(=O)N3CCN(C)CC3)n4C(C)C)n2)CC1 [Example 261, (1-Isopropyl-6-(2-(4-methoxypiperidin-1-yl)pyrimidin-4-ylamino)-1H-imidazo[4,5-c]pyridin-2-yl)(4-methylpiperazin-1-yl)methanone]"
13,0.0745,Cc1nc2cnc(Nc3ccnc(N4CCOC[C@H]4C)n3)cc2n1C(C)C [Example 604]
14,0.00166,"CC(C)n1cc(C(=O)NCCS(C)(=O)=O)c2cnc(Nc3ccnc(-c4cnn(S(=O)(=O)C5CC5)c4)n3)cc21 [Example 452, 6-(2-(1-(cyclopropylsulfonyl)-1H-pyrazol-4-yl)pyrimidin-4-ylamino)-1-isopropyl-N-(2-(methylsulfonyl)ethyl)-1H-pyrrolo[3,2-c]pyridine-3-carboxamide]"
15,0.0035,"CC(C)n1cnc2cnc(Nc3ccnc(-c4cnn(S(=O)(=O)C5CC5)c4)n3)cc21 [Example 97, N-(2-(1-(cyclopropylsulfonyl)-1H-pyrazol-4-yl)pyrimidin-4-yl)-1-isopropyl-1H-imidazo[4,5-c]pyridin-6-amine]"
16,0.107,"Cc1nc2cnc(Nc3ccnc(-c4cnn(CC(C)(C)O)c4)n3)cc2n1C(C)C [Example 341, 1-(4-(4-((1-Isopropyl-2-methyl-1H-imidazo[4,5-c]pyridin-6-yl)amino)pyrimidin-2-yl)-1H-pyrazol-1-yl)-2-methylpropan-2-ol]"
17,0.0563,"Cc1nc2cnc(Nc3ccnc(-c4cnn(S(=O)(=O)C5CN(C)C5)c4)n3)cc2n1C(C)C [Example 468, 1-isopropyl-2-methyl-N-(2-(1-(1-methylazetidin-3-ylsulfonyl)-1H-pyrazol-4-yl)pyrimidin-4-yl)-1H-imidazo[4,5-c]pyridin-6-amine]"

row,Ki [µM],Compound
1,1.67,"CC(C)n1cnc2cnc(Nc3ccnc(OCCCO)n3)cc21 [Example 86, 3-(4-(1-isopropyl-1H-imidazo[4,5-c]pyridin-6-ylamino)pyrimidin-2-yloxy)propan-1-ol]"
2,0.00096,"CCC(C)n1cc(C(=O)NC2CCOCC2)c2cnc(Nc3ccnc(-c4cnn(S(=O)(=O)C5CC5)c4)n3)cc21 (single isomer, unassigned; (+)) [Example 321, (+)-1-(sec-Butyl)-6-((2-(1-(cyclopropylsulfonyl)-1H-pyrazol-4-yl)pyrimidin-4-yl)amino)-N-(tetrahydro-2H-pyran-4-yl)-1H-pyrrolo[3,2-c]pyridine-3-carboxamide]"
3,0.000779,"CC(C)n1cc(C(=O)N[C@@H]2C[C@@H](O)[C@@H](O)C2)c2cnc(Nc3ccnc(-c4cnn(S(=O)(=O)C5CC5)c4)n3)cc21 [Example 450, 6-(2-(1-(cyclopropylsulfonyl)-1H-pyrazol-4-yl)pyrimidin-4-ylamino)-N-((1s,3S,4R)-3,4-dihydroxycyclopentyl)-1-isopropyl-1H-pyrrolo[3,2-c]pyridine-3-carboxamide]"
4,0.734,CC(C)n1cnc2cnc(Nc3ccnc(N4CCC(CC(=O)N(C)C)CC4)n3)cc21 [Example 199]
5,0.158,"CC(C)n1cnc2cnc(Nc3ccnc(C4=CCN(S(C)(=O)=O)CC4)n3)cc21 [Example 27, (1-Isopropyl-1H-imidazo[4,5-c]pyridin-6-yl)-[2-(1-methanesulfonyl-1,2,3,6-tetrahydropyridin-4-yl)pyrimidin-4-yl]amine]"
6,0.00126,"Cc1cc(-c2cn(C(C)C)c3cc(Nc4ccnc(-c5cnn(S(=O)(=O)C6CC6)c5)n4)ncc23)n(CCO)n1 [Example 436, 2-(5-(6-(2-(1-(cyclopropylsulfonyl)-1H-pyrazol-4-yl)pyrimidin-4-ylamino)-1-isopropyl-1H-pyrrolo[3,2-c]pyridin-3-yl)-3-methyl-1H-pyrazol-1-yl)ethanol]"
7,0.003,COC1CCN(c2nccc(Nc3cc4c(cn3)c(C(=O)NCC3CCNCC3)cn4C(C)C)n2)CC1 [Example 248]
8,0.11,"Cc1nc2cnc(Nc3ccnc(-n4cnc(C(C)O)c4)n3)cc2n1C(C)C (single isomer, unassigned) [Example 642, 1-(1-(4-((1-isopropyl-2-methyl-1H-imidazo[4,5-c]pyridin-6-yl)amino)pyrimidin-2-yl)-1H-imidazol-4-yl)ethanol]"
9,0.988,"CC(C)n1cnc2cnc(Nc3ccnc(N4CCNC(=O)C4)n3)cc21 [Example 132, 4-[4-(1-Isopropyl-1H-imidazo[4,5-c]pyridin-6-ylamino)pyrimidin-2-yl]piperazin-2-one]"
10,0.0338,"CC(C)n1c(CO)nc2cnc(Nc3ccnc(-c4cn(CC5CC5)nc4N)n3)cc21 [Example 251, (6-(2-(3-Amino-1-(cyclopropylmethyl)-1H-pyrazol-4-yl)pyrimidin-4-ylamino)-1-isopropyl-1H-imidazo[4,5-c]pyridin-2-yl)methanol]"
11,0.00121,"Cc1c(-c2cn(C(C)C)c3cc(Nc4ccnc(-c5cnn(S(=O)(=O)C6CC6)c5)n4)ncc23)cnn1CCO [Example 438, 2-(4-(6-(2-(1-(cyclopropylsulfonyl)-1H-pyrazol-4-yl)pyrimidin-4-ylamino)-1-isopropyl-1H-pyrrolo[3,2-c]pyridin-3-yl)-5-methyl-1H-pyrazol-1-yl)ethanol]"
12,0.183,"CC(C)n1cnc2cnc(Nc3ccnc(N4CCC5(CCOC5)C4)n3)cc21 (single isomer, unassigned) [Example 37, (R or S)—N-(2-(2-Oxa-7-azaspiro[4.4]nonan-7-yl)pyrimidin-4-yl)-1-isopropyl-1H-imidazo[4,5-c]pyridin-6-amine]"
13,0.0279,"C=C(F)n1cc(-c2nccc(Nc3cc4c(cn3)nc(CO)n4C(C)C)n2)cn1 [Example 334, (6-((2-(1-(1-Fluorovinyl)-1H-pyrazol-4-yl)pyrimidin-4-yl)amino)-1-isopropyl-1H-imidazo[4,5-c]pyridin-2-yl)methanol]"
14,0.0132,"CC(=O)N1CCC(S(=O)(=O)n2cc(-c3nccc(Nc4cc5c(cn4)nc(C)n5C(C)C)n3)cn2)C1 (centres unmarked) [Example 259, 1-(3-(4-(4-(1-Isopropyl-2-methyl-1H-imidazo[4,5-c]pyridin-6-ylamino)pyrimidin-2-yl)-1H-pyrazol-1-ylsulfonyl)pyrrolidin-1-yl)ethanone]"
15,0.241,"CC(C)n1cnc2cnc(Nc3ccnc(N4CCC5(COC5)C4)n3)cc21 [Example 107, N-(2-(2-oxa-6-azaspiro[3.4]octan-6-yl)pyrimidin-4-yl)-1-isopropyl-1H-imidazo[4,5-c]pyridin-6-amine]"
16,1.1,Cc1nc2cnc(Nc3ccnc(-n4ccc(N)n4)n3)cc2n1C(C)C [Example 602]
17,0.283,"CC(C)n1cnc2cnc(Nc3ccnc(N4CCC(C#N)CC4)n3)cc21 [Example 148, 1-[4-(1-Isopropyl-1H-imidazo[4,5-c]pyridin-6-ylamino)pyrimidin-2-yl]piperidine-4-carbonitrile]"

row,Compound,Ki [µM]
1,"CCC(C)n1cnc2cnc(Nc3ccnc(N4CCC(OC)CC4)n3)cc21 (single isomer, unassigned) [Example 32, ((R) or (S) 1-sec-Butyl-1H-imidazo[4,5-c]pyridin-6-yl)-[2-(4-methoxypiperidin-1-yl)pyrimidin-4-yl]amine]",0.0194
